Consider one compound from patent publication US20260048027A1.

Protein sequences, listed by entry. Tags and fused reporters are not part of them.
UniProt P31639, whole entry: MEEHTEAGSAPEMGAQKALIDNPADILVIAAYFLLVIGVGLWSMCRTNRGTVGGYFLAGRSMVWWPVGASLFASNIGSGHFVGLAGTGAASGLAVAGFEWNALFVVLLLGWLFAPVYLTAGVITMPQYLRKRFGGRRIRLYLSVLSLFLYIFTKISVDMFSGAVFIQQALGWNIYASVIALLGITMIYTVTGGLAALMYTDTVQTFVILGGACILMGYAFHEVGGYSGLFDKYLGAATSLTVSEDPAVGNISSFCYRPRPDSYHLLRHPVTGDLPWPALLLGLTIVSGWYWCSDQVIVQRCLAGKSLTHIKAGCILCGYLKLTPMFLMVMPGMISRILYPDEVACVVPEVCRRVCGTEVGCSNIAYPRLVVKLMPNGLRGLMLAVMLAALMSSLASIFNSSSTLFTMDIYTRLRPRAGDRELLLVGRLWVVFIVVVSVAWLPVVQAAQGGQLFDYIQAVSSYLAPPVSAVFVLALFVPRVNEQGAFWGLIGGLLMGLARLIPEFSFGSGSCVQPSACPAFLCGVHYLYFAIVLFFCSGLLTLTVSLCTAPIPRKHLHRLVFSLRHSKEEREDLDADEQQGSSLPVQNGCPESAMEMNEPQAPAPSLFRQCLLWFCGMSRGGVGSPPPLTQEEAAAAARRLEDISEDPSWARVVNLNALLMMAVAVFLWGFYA

For this assay, the target named is SGLT2 (Homo sapiens, UniProt P31639). The note with it: comparison of SGLT2 and SGLT1 transfected CHO-K1 cells.

As to `COc1cc(O)c(C(=O)CCc2ccc(O)cc2)c(OC2OC(CO)C(O)C(O)C2O)c1` (stereo not shown), the “potency on SGLT2 versus SGLT1” value is listed as “more potent on SGLT2 than on SGLT1”.
